Target: METTL3 (Homo sapiens (Human), UniProt Q86U44)
Assay: TR-FRET biochemical assay (time resolved-Förster resonance energy transfer)
Conditions: for LLE (lipophilic ligand efficiency, pIC50-logP): calculated with DataWarrior

Protein sequences, listed by entry. Tags and fused reporters are not part of them.
UniProt Q86U44, whole entry: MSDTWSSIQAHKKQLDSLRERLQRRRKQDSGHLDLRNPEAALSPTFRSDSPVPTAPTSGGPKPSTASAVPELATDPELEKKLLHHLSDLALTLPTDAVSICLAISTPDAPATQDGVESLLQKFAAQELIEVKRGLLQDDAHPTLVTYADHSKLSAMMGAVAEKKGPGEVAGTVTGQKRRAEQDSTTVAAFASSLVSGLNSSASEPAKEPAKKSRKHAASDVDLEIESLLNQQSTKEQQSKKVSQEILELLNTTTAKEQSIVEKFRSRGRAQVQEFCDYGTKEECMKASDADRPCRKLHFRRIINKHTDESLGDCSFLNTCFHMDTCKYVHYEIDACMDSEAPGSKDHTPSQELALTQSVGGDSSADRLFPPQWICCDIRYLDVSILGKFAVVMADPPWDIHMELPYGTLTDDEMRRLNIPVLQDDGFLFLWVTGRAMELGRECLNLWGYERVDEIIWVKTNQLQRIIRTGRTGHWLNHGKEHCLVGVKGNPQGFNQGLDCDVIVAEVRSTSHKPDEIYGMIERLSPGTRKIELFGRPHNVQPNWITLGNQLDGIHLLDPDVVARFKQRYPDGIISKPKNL
UniProt Q9HCE5, whole entry partner: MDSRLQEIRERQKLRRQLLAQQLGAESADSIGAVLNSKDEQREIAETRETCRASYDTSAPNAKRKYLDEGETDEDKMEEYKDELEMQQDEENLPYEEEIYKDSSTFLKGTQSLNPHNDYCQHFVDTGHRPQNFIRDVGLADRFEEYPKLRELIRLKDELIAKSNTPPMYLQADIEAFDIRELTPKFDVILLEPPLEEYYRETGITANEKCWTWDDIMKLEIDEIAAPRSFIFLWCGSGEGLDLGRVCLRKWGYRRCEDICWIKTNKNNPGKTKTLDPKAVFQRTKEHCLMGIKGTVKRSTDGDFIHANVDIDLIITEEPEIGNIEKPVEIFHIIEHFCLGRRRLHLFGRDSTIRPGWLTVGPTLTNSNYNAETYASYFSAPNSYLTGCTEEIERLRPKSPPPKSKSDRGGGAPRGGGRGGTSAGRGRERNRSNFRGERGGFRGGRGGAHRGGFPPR

Row | Structure (SMILES) | LLE (lipophilic ligand efficiency, pIC50-logP) | LE (ligand efficiency) | potency reduction / loss (relative to parent compound)
1 | CNc1cc(N2CCC(O)(CNc3ccc(CN4CCC(C)(C)CC4)nc3)CC2)ncn1 | 3.4 | – | –
2 | CNc1cc(N2CCC3(CC2)CN(c2ccc(CN4CCC(C)(C)CC4)cc2)CC(=O)N3C)ncn1 | 3 | 0.22 kcal.mol^-1.heavy atom count^-1 | 19 fold
3 | CNc1cc(N2CCC(O)(CNc3ccc(CN4CCC(C)(C)CC4)cc3)CC2)ncn1 | 2.5 | – | –
4 | CNc1cc(N2CCC(O)(CNc3ccc(CN4CCC(C)(C)CC4)cn3)CC2)ncn1 | 3.2 | – | –
